The experiment addresses T1, Natriuretic Peptide Receptor-A (NPR-A) signaling in MDCK cells (Canis lupus familiaris, UniProt A0A8I3MHU3).
T1 sequence (A0A8I3MHU3 32-1060): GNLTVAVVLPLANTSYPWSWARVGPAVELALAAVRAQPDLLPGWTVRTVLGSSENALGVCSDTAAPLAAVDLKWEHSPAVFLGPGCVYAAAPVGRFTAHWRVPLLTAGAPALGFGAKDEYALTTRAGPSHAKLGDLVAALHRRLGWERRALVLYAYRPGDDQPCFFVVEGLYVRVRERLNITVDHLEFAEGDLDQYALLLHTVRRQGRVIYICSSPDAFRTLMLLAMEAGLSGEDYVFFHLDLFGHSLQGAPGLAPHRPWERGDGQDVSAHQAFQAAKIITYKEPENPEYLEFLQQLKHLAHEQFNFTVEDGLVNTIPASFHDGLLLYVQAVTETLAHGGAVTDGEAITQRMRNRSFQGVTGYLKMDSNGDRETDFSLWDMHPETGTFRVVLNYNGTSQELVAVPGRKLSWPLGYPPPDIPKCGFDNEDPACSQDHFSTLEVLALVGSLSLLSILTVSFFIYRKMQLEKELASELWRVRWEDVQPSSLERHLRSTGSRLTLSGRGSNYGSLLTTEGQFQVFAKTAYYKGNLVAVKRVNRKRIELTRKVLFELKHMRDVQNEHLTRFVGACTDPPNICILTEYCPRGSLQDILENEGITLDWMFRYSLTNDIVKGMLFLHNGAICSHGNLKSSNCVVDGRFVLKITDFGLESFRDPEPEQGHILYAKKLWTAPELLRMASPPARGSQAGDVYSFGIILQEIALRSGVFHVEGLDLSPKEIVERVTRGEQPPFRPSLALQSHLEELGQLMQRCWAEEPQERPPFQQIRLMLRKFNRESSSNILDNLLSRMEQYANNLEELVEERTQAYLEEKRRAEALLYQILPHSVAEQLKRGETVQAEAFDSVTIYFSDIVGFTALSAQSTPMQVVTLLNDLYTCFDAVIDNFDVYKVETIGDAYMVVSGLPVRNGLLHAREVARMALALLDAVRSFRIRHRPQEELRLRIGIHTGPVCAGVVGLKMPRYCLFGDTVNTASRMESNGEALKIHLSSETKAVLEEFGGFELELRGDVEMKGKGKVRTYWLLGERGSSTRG
The class given is cell-based, canine. Particulars: stimulation of cGMP accumulation in MDCK cells.

The source of these data is patent US8058242B2, “Chimeric proteins with natriuretic activity” (The University of Queensland, priority 2004, dated 2011).

Usually EC50 stands for the concentration at which the effect is half-maximal. Regarding `CC[C@H](C)[C@@H]1NC(=O)[C@H](CCCNC(=N)N)NC(=O)[C@H](CC(=O)O)NC(=O)[C@H]([C@@H](C)CC)NC(=O)[C@H](CCCNC(=N)N)NC(=O)CNC(=O)CNC(=O)[C@H](Cc2ccccc2)NC(=O)[C@@H](NC(=O)[C@H](CO)NC(=O)[C@H](CO)NC(=O)[C@H](CCCNC(=N)N)NC(=O)[C@H](CCCNC(=N)N)NC(=O)[C@H](CC(C)C)NC(=O)[C@@H](N)CO)CSSC[C@@H](C(=O)N[C@@H](CC(N)=O)C(=O)N[C@@H](CO)C(=O)N[C@@H](Cc2ccccc2)C(=O)N[C@@H](CCCNC(=N)N)C(=O)N[C@@H](Cc2ccc(O)cc2)C(=O)O)NC(=O)CNC(=O)[C@H](CC(C)C)NC(=O)CNC(=O)[C@H](CO)NC(=O)[C@H](CCC(N)=O)NC(=O)[C@H](C)NC(=O)CNC1=O` [rANP, reference compound], the “−Log10 EC50 (pEC50) ± Standard Error” value stood at 8.761 ± 0.2936. The EC50 (read-out: EC50 (M) ± Standard Error) was 8.47e-09 M.
